Laboratory results from patent US20100034823A1.

Biological target: recombinant human TNF (human) (UniProt P01375)
Experiment: cell-based or functional assay

monoclonal antibody D2E7 (redissolved from crystal suspension prepared as in Example 36)
relative biological activity (L-929 cytotoxicity neutralisation; mean IC50 of reference standard / IC50 of sample x 100%): 111%
